BindingDB's records for doi:10.1021/jm060519r (Human Biomolecular Research Institute, 2006)

Molecular target: T1, Cytochrome P450 2A6 (Homo sapiens, UniProt P11509)
T1 sequence (P11509 whole entry): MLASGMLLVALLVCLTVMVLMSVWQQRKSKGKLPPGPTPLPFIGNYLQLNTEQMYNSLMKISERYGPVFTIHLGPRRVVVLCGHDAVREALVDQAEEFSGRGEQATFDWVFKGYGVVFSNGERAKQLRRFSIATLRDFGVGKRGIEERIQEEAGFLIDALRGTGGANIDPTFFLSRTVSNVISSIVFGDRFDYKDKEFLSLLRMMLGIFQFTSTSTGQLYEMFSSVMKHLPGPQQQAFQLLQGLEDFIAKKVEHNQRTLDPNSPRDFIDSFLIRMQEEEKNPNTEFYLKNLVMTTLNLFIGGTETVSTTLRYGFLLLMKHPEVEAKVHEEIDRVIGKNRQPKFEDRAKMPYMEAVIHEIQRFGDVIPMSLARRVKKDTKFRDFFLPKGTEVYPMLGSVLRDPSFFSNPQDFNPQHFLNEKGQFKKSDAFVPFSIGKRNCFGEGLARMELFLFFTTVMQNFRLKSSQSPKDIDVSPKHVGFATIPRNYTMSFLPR
Test: CYP2A6 Inhibition Assay
Description: To measure CYP2A6 activity, coumarin 7-hydroxylation was determined. […] The amount of product formed was obtained by interpolation from a standard curve of 7-hydroxycoumarin. The IC50 values were determined using GraphPad Prism version 3.0 and are reported as an average of three experiments. Apparent Ki values were determined from the IC50 values by employing the equation of Cheng and Prusoff.

Ki: 80 nM
Compound: NCc1ccc(-c2cccnc2)s1 [US8609708, 31]
